The assay deals with T1, human muscarinic acetylcholine M3 receptor (Homo sapiens, UniProt P20309).
T1 construct: expressed in transfected cells; host or cells: CHO-K1 (Chinese Hamster Ovary) cell membranes
Briefly: biochemical. The conditions noted are these: M3 binding IC50.

By UniProt entry, the sequences of proteins in these tests, tags left out.
UniProt P20309, whole entry: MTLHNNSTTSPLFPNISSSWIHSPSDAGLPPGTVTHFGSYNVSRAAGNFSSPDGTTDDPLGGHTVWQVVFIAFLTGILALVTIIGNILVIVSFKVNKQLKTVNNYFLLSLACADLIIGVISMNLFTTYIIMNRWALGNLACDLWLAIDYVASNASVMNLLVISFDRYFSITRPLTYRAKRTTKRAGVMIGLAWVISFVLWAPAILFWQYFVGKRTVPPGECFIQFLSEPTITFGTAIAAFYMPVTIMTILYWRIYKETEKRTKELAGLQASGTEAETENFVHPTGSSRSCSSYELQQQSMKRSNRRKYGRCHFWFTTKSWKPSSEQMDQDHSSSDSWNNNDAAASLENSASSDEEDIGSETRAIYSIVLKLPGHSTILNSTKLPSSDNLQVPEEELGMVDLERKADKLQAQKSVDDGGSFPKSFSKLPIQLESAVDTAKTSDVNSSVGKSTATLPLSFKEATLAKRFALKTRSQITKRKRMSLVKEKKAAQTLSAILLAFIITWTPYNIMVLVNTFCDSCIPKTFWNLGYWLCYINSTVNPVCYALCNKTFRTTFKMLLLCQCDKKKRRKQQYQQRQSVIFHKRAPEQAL

By IC50 is commonly meant the midpoint of a concentration-inhibition curve.

In turn, `Cc1nccc(NC(=O)C[N+]23CCC(CC2)[C@@H](OC(=O)C2(c4ccccc4)CCCCCC2)C3)n1` [Example 58, (R)-1-[(2-Methyl-pyrimidin-4-ylcarbamoyl)-methyl]-3-(1-phenyl-cycloheptanecarbonyloxy)-1-azonia-bicyclo[2.2.2]octane chloride] registered an IC50 of less than 2 nM.

For the origin of these results see patent US20130030001A1 (priority 2008, published 2013).
